Curated experimental data: properties

Data: OPERA 2.9 data sets, kmansouri/OPERA on GitHub.

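OPERA's authors assembled the values from existing databases and did not measure them anew. The files give a single number for a compound and property, which may rest on several reports. How each value was measured is not recorded, so precision varies. A value may pool stereoisomers or salt forms, and the file does not say which form was measured. Some upstream entries may be estimates or bounds without being marked so.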

The melting point is given in degrees Celsius.
Boiling points are in °C, nominally at 760 mmHg.
logP is the log10 of the octanol-water partition coefficient; higher is more lipophilic.
Water solubility is log10 of mol/L, nominally at 25 °C; higher is more soluble.
Vapor pressure is log10 of mmHg; the set covers 15 to 30 °C, mostly 20 to 25 °C.
fu is the fraction unbound in human plasma, from 0 to 1.
Intrinsic clearance (human, µL/min per 10^6 hepatocytes): higher is faster turnover, and 0 stands for none detected.
"–" marks a cell with nothing listed here.

structure (SMILES)	name	MP (°C)	bp (°C)	logP	water solubility (log10 mol/L)	vapor pressure (log10 mmHg)	plasma fu	intrinsic clearance (µL/min/10^6 cells)
NC(=O)Cn1c(=O)cc(CCN2CCN(c3nccc4sccc34)CC2)c2ccc(F)cc21	Trelanserin	–	–	–	–	–	0.0607	7.06
C1COCCO1	1,4-dioxane	–	–	–	–	–	0.9398	0.6904
CC(=O)OCCN(CCOC(C)=O)c1ccc(/N=N/c2ccc([N+](=O)[O-])cc2C#N)cc1	Disperse Red 82	140.8	–	3.7	-7.3	–	–	–
CCCCCCCCC(C)C=O (centres undefined)	2-Methyldecanal	-36	–	–	-4.027	-1.301	–	–
Cc1ccccc1CCO	2-Methylphenethyl alcohol	–	–	2.1	–	-1.846	–	–
S=c1[nH]nc(SSc2n[nH]c(=S)s2)s1	1,3,4-Thiadiazole-2(3H)-thione, 5,5'-dithiobis-	164.5	–	–	–	-6.512	–	–
O=C(Nc1ccccc1)Nc1ccccc1NS(=O)(=O)c1ccccc1	–	158	–	–	–	-4.546	–	–
CC1=NN(c2cccc(S(=O)(=O)O)c2)C(=O)C1	–	–	–	-2.05	-1.772	–	–	–
CCCCCCCCCCCCCCCC=CCC(CC(=O)O)C(=O)O (centres undefined)	Butanedioic acid, 2-(2-octadecen-1-yl)-	60.73	–	6.25	–	-4.952	–	–
CC(C)N1CCN(c2ccc(OC[C@H]3CO[C@](Cn4cncn4)(c4ccc(Cl)cc4Cl)O3)cc2)CC1	Terconazole	–	–	4.5	-4.662	–	–	–
CC(OC(C)(C)COC(=O)C1CC1)C1CCCC(C)(C)C1 (centres undefined)	–	–	–	–	-4.892	-1.949	–	–
ClC1=C(Cl)[C@]2(Cl)C(Cl)=C(Cl)[C@H]3[C@H]1[C@H](Cl)C[C@H]32	Alpha-Chlordene	–	–	5.66	–	-4.602	–	–
CCCCC1CCCC(=O)O1 (centres undefined)	2H-Pyran-2-one, 6-butyltetrahydro-	–	–	2.4	–	-2.381	–	–
Nc1ccc(Br)c(C(F)(F)F)c1	4-Bromo-alpha,alpha,alpha-trifluoro-m-toluidine	–	–	2.7	-2.465	–	–	–
CC(C)CC(=O)OCc1ccccc1	Benzyl 3-methylbutanoate	-10.04	–	–	-2.907	–	–	–
COc1ccc(COC(C)=O)cc1	4-Methoxybenzyl acetate	–	–	–	-2.466	-0.983	–	–
CCCCCC1CCC(c2ccc(OCC)c(F)c2F)CC1 (centres undefined)	1-Ethoxy-2,3-difluoro-4-(4-pentylcyclohexyl)benzene	49.35	365.2	–	-7.015	-5.516	–	–
CCOC(=O)CC1(C)OCCO1	1,3-Dioxolane-2-acetic acid, 2-methyl-, ethyl ester	-78.8	–	0.8	–	-0.091	–	–

Excerpt, the final 3 entries:

structure (SMILES)	name	MP (°C)	bp (°C)	logP	water solubility (log10 mol/L)	vapor pressure (log10 mmHg)	plasma fu	intrinsic clearance (µL/min/10^6 cells)
COc1ccc(COC(C)=O)cc1	4-Methoxybenzyl acetate	–	–	–	-2.466	-0.983	–	–
CCCCCC1CCC(c2ccc(OCC)c(F)c2F)CC1 (centres undefined)	1-Ethoxy-2,3-difluoro-4-(4-pentylcyclohexyl)benzene	49.35	365.2	–	-7.015	-5.516	–	–
CCOC(=O)CC1(C)OCCO1	1,3-Dioxolane-2-acetic acid, 2-methyl-, ethyl ester	-78.8	–	0.8	–	-0.091	–	–